# Values quoted from earlier work in PMC5903342, “Atorvastatin Downregulates In Vitro Methyl Methanesulfonate and Cyclophosphamide Alkylation-Mediated Cellular and DNA Injuries” (Oxidative Medicine and Cellular Longevity, 2018).
# Tested on: human umbilical vein endothelial cells (HUVEC)
# Settings: effects caused by doxorubicin, etoposide, and MMS; cited from earlier work
structure (smiles),measurement,value
"CC[C@H](C)C(=O)O[C@H]1C[C@@H](C)C=C2C=C[C@H](C)[C@H](CC[C@@H]3C[C@@H](O)CC(=O)O3)[C@H]21 [LOVA, lovastatin]",Prevention of genotoxic and cytotoxic effects,prevent genotoxic and cytotoxic effects
